This is an account of results in patent US9376425B2, “Heterocyclic compounds as MDM2 inhibitors for the treatment of cancer” (AMGEN INC., priority 2011, dated 2016).

Chains of the proteins cited; added tags and fusions are not shown. Residues count along the entry.
UniProt Q00987, 1-188 limits assumed: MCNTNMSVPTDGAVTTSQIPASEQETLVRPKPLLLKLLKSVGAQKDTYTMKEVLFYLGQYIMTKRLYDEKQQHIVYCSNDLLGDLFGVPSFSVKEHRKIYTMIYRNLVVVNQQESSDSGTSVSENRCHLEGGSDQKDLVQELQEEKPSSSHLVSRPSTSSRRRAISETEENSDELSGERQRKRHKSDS

This assay concerns the target human MDM2 (GST-hMDM2 1-188), interaction with biotinylated-p53 (1-83) (Homo sapiens, UniProt Q00987). In words: improved HTRF assay (HTRF2 assay), inhibition of HDM2-p53 interaction. As to conditions: read-out: HTRF2 IC50; 0.2 nM GST-hMDM2, 0.5 nM biotinylated-p53, 100 mM KF. (TR-FRET usually uses a lanthanide donor and a delayed reading to cut background.)

The term IC50 denotes the concentration that inhibits the measured activity by half.

Consider `CCC(C)S(=O)(=O)C[C@H](CC)N1C(=O)C(CC(=O)O)O[C@H](c2cccc(Cl)c2)[C@H]1c1ccc(Cl)cc1` (single isomer, unassigned) [Example 281], for which the IC50 was determined as 4 nM.
Next, `CC(C)S(=O)(=O)C(C)[C@H](C1CC1)N1C(=O)C(CC(=O)O)O[C@H](c2cccc(Cl)c2)[C@H]1c1ccc(Cl)cc1` (single isomer, unassigned): 3 nM.
For `CCC(C)S(=O)(=O)C[C@H](CC)N1C(=O)C(CC(=O)O)O[C@H](c2cccc(Cl)c2)[C@H]1c1ccc(Cl)cc1` (single isomer, unassigned) [Example 280], the IC50 was 2 nM.
